# An excerpt weighted towards active compounds, which were near 16% of everything screened.
# TDP1 block: inhibitors of human tyrosyl-DNA phosphodiesterase TDP1. 0.28% of 350,000 active. Potency, µM (doses to about 130 µM), without a hit: top-dose activity change, negative = inhibition, actives largely listed as inhibitors. Q9NUW8. recombinant TDP1, AlphaScreen DNA substrate cleavage; note: potency is the fitted concentration of half-maximal effect; % is set by controls: 0 for no effect and ±100 for the full control effect; nearly all actives have a fitted effect of over 40% in size
#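 Enzyme-compound mixtures sat 15 min at room temperature, followed by a 5 min reaction with 15 nM final substrate and 10 min with AlphaScreen beads. Recombinant human Tdp1 was used at 1 nM final.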
# DT40 TDP1 no CPT: qHTS for Inhibitors of human tyrosyl-DNA phosphodiesterase 1 (TDP1): qHTS in cells in absence of CPT | DT40 Tdp1-/- hTDP1 cells, no CPT, ATP luminescence, 48 h | AID 686978, 2013 | Potency, µM (highest dose often 46.2 µM), for inactives: at the top dose activity change, negative = growth inhibition, hits mostly inhibitors | 15% of 420,000 active; note: potency is the fitted concentration of half-maximal effect; % is set by controls: 0 for no effect and ±100 for the full control effect; nearly all actives have a fitted effect of over 55% in size
#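 Seeded 400 DT40-hTDP1 cells/well (vehicle DMSO, no 20 nM CPT); pinned compounds; ≥48 hr at 37 °C; CellTiter-Glo luminescence as viability measure.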
# uPA surface inh: inhibitors of cell surface uPA generation | cell surface uPA generation assay, qHTS | Potency, µM (highest dose often 38.3 µM), without a hit: top-dose activity change, negative = inhibition, actives largely listed as inhibitors | 0.31% of 330,000 active | AID 540303; active = well fitted inhibition curve with a large enough effect; inconclusive = small, poorly fitted or top-dose-only effect; inactive = no such curve, though single readings can be large or run the other way; tested in mouse RAW 264.7 cells; note: potency is the fitted concentration of half-maximal effect; % is set by controls: 0 for no effect and ±100 for the full control effect; nearly all actives have a fitted effect of over 55% in size
# miR-21 reporter: raises the signal of a miR-21 reporter | HeLa miR-21 FLuc reporter, luciferase, 48 h | Potency, µM (doses to about 38.3 µM), for the others: at the highest dose reporter change, positive = more light | 340,000 tested, under 10 active | AID 2288; active = well fitted rising curve with a large enough effect; inconclusive = small, poorly fitted or top-dose-only effect; inactive = no such curve, though single readings can be large or run the other way;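 also: % of control where 0% means no effect; miR-21 action dims this reporter so a rising signal means less miR-21 action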
#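 Using DMEM plus 10% FBS, HeLa miR-21-FLuc cells are incubated with test compounds (final up to about 40uM) for 48 hours; firefly luciferase signal is then imaged following reagent-mediated lysis.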
# TDP1 cell CPT: DT40-hTDP1 cell growth loss with CPT | Potency, µM (highest dose often 46.2 µM), inactives show at the top dose activity change, negative = growth inhibition, most hits filed as inhibitors | 12% of 420,000 active | chicken DT40 Tdp1-/-;hTDP1 cells + 20 nM CPT, ATP luminescence, 48 h; note: potency is the fitted concentration of half-maximal effect; % is set by controls: 0 for no effect and ±100 for the full control effect; nearly all actives have a fitted effect of over 55% in size
#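 Chicken DT40 Tdp1-/- cells stably complemented with human TDP1 were seeded at 400 cells/well in medium containing 20 nM camptothecin, exposed to pin-transferred compounds, and grown at 37 °C for at least 48 hr. Viability was read as ATP luminescence.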
# An asterisk follows results filed as active; ? = inconclusive; / = not tested or not shown. Unless noted, calls come from the whole dose curve; as a rule, active = well fitted curve in the direction sought with a large enough effect; inconclusive = small, poorly fitted or top-dose-only effect, or another doubt; inactive = no such curve, though single readings can be large; an effect the other way counts as inactive or inconclusive.
1) COc1ccccc1OCCC(=O)OCC(=O)Nc1cc(S(=O)(=O)N(C)C)ccc1Cl
2) CN(C)S(=O)(=O)c1ccc(Cl)c(NC(=O)COc2ccccc2[N+](=O)[O-])c1
3) CC(C)(C)C(=O)COc1ccccc1[N+](=O)[O-]
4) CCCCOCCCNC(=O)c1c(-c2ccccc2)noc1C
5) CCN(CC)S(=O)(=O)c1ccc(Cl)c(NC(=O)COc2ccccc2[N+](=O)[O-])c1
6) Cc1cccc2cc(CN(Cc3ccco3)C(=O)NC3CCCCC3)c(=O)[nH]c12
7) COC(=O)c1cc(S(=O)(=O)N(C)C2CCCCC2)cn1C
8) COC(=O)c1ccc(S(=O)(=O)N(C2CCCCC2)C2CCCCC2)n1C

Screen / compound no. | 1 | 2 | 3 | 4 | 5 | 6 | 7 | 8
TDP1 block | -2.7% | 3.0% | 1.8% | -3.6% | -2.8% | 6.2% | 0.9% | 1.4%
TDP1 cell CPT | ? | ? | 14.6µM* | -13.6% | ? | ? | -19.1% | ?
miR-21 reporter | -0.5% | -1.0% | 3.5% | -0.4% | -1.0% | -0.4% | -5.6% | -3.2%
DT40 TDP1 no CPT | ? | 3.26µM* | ? | 1.8% | 23.1µM* | -29.2% | ? | 23.1µM*
uPA surface inh | -2.9% | 4.2% | 1.1% | -1.5% | -1.7% | -1.1% | -5.9% | 8.8%

9) S=c1nc(Cc2ccccc2)[nH]c2ccccc12
10) COC(=O)CC1Oc2ccccc2-n2cc(-c3ccc(C)cc3)nc21 (stereo not drawn)
11) COC(=O)CC1Oc2ccccc2-n2cc(-c3ccc(F)cc3)nc21 (stereo not drawn)
12) COC(=O)c1ccc(-c2ccc(F)cc2)nc1C
13) CC(C)C1C(=O)N(Cc2cn(Cc3ccco3)nn2)CCS(=O)(=O)N1Cc1ccc(-c2ccc(F)cc2)cc1 (stereo not drawn)
14) CC(C)C1C(=O)N(Cc2cn(Cc3ccco3)nn2)CCS(=O)(=O)N1Cc1ccc(-c2ccc(Cl)cc2)cc1 (stereo not drawn)
15) CC(C)C1C(=O)N(Cc2cn(Cc3ccco3)nn2)CCS(=O)(=O)N1Cc1ccc(-c2ccncc2)cc1 (stereo not drawn)
16) CC(C)C1C(=O)N(Cc2cn(Cc3ccco3)nn2)CCS(=O)(=O)N1Cc1ccc(-c2ccccc2)cc1 (stereo not drawn)

Screen / compound no. | 9 | 10 | 11 | 12 | 13 | 14 | 15 | 16
TDP1 block | / | 5.8% | 5.8% | 5.1% | / | / | / | /
TDP1 cell CPT | 25.9µM* | 5.8µM* | 9.2µM* | -14.7% | ? | 9.2µM* | -12.5% | ?
miR-21 reporter | -17.7% | -15.1% | 17.8% | -69.8% | / | / | / | /
DT40 TDP1 no CPT | ? | 3.26µM* | 8.2µM* | -3.5% | 20.6µM* | 6.51µM* | -14.9% | 18.4µM*
uPA surface inh | 1.9% | / | / | 5.6% | / | / | / | /

17) Cc1ccc(NC(=O)CSC(C)C(=O)OCc2cc(=O)oc3cc(O)ccc23)cc1 (stereo not drawn)
18) Cc1cc(C)n(-c2ccc(C(=O)N3CCN(S(=O)(=O)c4ccc(Br)cc4Cl)CC3)cc2)n1
19) Cc1cc(C)n(-c2ccc(C(=O)N3CCC(CO)(Cc4ccccc4)CC3)cc2)n1
20) Cc1cc2cc(CNC(=S)Nc3ccc(OC(F)F)cc3)ccc2n1C
21) Cc1ccc(S(=O)(=O)N2CCc3ccccc3C2CN2C(=O)c3ccccc3C2=O)cc1 (stereo not drawn)
22) O=C1c2ccccc2C(=O)N1CC1c2ccccc2CCN1S(=O)(=O)c1cnc[nH]1 (stereo not drawn)
23) Cc1ccc(C(=O)Nc2ncnc3sc4c(c23)CCCCC4)cc1
24) CCSc1nnc(-c2cccc(S(=O)(=O)N(CC)CC)c2)n1Cc1ccccc1

Screen / compound no. | 17 | 18 | 19 | 20 | 21 | 22 | 23 | 24
TDP1 block | / | / | 2.6% | 5.5% | 0.0% | 3.3% | 0.7% | 4.2%
TDP1 cell CPT | -11.5% | 23.1µM* | 16.4µM* | ? | 22.4µM* | 1.6% | ? | 11.2µM*
miR-21 reporter | / | / | 4.2% | -3.2% | -1.4% | -2.6% | -16.2% | ?
DT40 TDP1 no CPT | -26.6% | 16.4µM* | ? | ? | 11.2µM* | 1.4% | ? | 17.8µM*
uPA surface inh | / | / | 9.4% | -2.5% | 3.6% | 0.1% | -3.4% | /

25) CCN(CC)S(=O)(=O)c1cccc(-c2nnc(SCc3ncc(-c4ccccc4)o3)n2C)c1
26) CCN(CC)S(=O)(=O)c1cccc(-c2nnc(SCC(N)=O)n2C)c1
27) CCOc1ccc(CNS(=O)(=O)c2ccc(-c3cc(C(F)(F)F)on3)s2)cc1
28) CN1c2ccccc2-c2nc3ccccc3n2C1c1ccncc1 (stereo not drawn)
29) CN1c2ccccc2-c2nc3ccccc3n2C1c1ccccn1 (stereo not drawn)
30) c1ccc(CN2c3ccccc3-c3nc4ccccc4n3C2c2ccccn2)cc1 (stereo not drawn)
31) CCN1c2ccccc2-c2nc3ccccc3n2C1c1ccco1 (stereo not drawn)
32) COC(=O)c1ccc(CNC(=O)COC(=O)CNS(=O)(=O)c2ccc(C)cc2)cc1

Screen / compound no. | 25 | 26 | 27 | 28 | 29 | 30 | 31 | 32
TDP1 block | 5.9% | -2.6% | 2.6% | -1.0% | 7.3% | 0.0% | 0.0% | /
TDP1 cell CPT | ? | 16.3% | ? | -20.8% | 16.4µM* | -9.3% | 20.6µM* | -5.2%
miR-21 reporter | 10.1% | -4.6% | -3.3% | -1.3% | -9.1% | 11.7% | 0.1% | /
DT40 TDP1 no CPT | 18.4µM* | 1.4% | -30.0% | ? | 16.4µM* | 4.5% | 16.4µM* | 1.5%
uPA surface inh | -8.8% | 3.2% | / | 5.6% | -1.9% | -4.2% | 1.7% | /

33) COc1cc2c(C(=O)N(C)c3cccc(C(F)(F)F)c3)cn(CC(C)C)c(=O)c2cc1OC
34) CCn1cc(C(=O)Nc2ccc(C(C)C)cc2)c2cc(OC)c(OC)cc2c1=O
35) CCn1cc(C(=O)N(C)c2cc(C)ccc2C)c2cc(OC)c(OC)cc2c1=O
36) CCn1cc(C(=O)Nc2cccc(NC(C)=O)c2)c2cc(OC)c(OC)cc2c1=O
37) CCn1cc(C(=O)N(C)c2cc(C)ccc2OC)c2cc(OC)c(OC)cc2c1=O
38) CCn1cc(C(=O)N(C)c2ccc(C(C)C)cc2)c2cc(OC)c(OC)cc2c1=O
39) Cc1ccsc1C(=O)N1CCCC(C(=O)c2cc(F)ccc2F)C1 (stereo not drawn)
40) COc1ccc(F)cc1C(=O)C1CCCN(C(=O)c2ccccc2N(C)C)C1 (stereo not drawn)

Screen / compound no. | 33 | 34 | 35 | 36 | 37 | 38 | 39 | 40
TDP1 block | 5.9% | 2.9% | 2.9% | 5.9% | / | 8.8% | / | 4.7%
TDP1 cell CPT | 13µM* | ? | 25.9µM* | -13.6% | -16.6% | ? | ? | ?
miR-21 reporter | 19.6% | ? | 0.7% | 0.4% | -8.6% | 6.2% | -1.9% | 13.3%
DT40 TDP1 no CPT | 18.4µM* | 16.4µM* | 20.6µM* | ? | -11.4% | 18.4µM* | 23.1µM* | 18.4µM*
uPA surface inh | / | / | / | 3.9% | 0.3% | / | -10.0% | 2.7%

41) Cn1c(=O)c2[nH]c(N=NNc3ccccc3F)nc2n(C)c1=O
42) C/C(=N/NS(=O)(=O)c1ccc(Br)cc1)c1cccc(NC(=O)C2CC2)c1
43) O=C(O)c1ccc2c(ccc3nn(-c4ccc(/C=C/c5ccc(-n6nc7ccc8cc(C(=O)O)ccc8c7n6)cc5[S+](=O)([O-])[O-])c([S+](=O)([O-])[O-])c4)nc32)c1
44) Cn1cc(/C=C(\C#N)C(=O)Nc2ccccc2O)c2ccccc21

Screen / compound no. | 41 | 42 | 43 | 44
TDP1 block | / | / | 2.51µM* | /
TDP1 cell CPT | -5.4% | -16.9% | 8.6% | ?
miR-21 reporter | 3.8% | / | / | -36.0%
DT40 TDP1 no CPT | 4.5% | -6.2% | 0.3% | 18.4µM*
uPA surface inh | 2.5% | / | / | -5.7%

# Screening results (PubChem)
